Reference: US20220362163A1, “METHODS AND COMPOSITIONS FOR CANCER TREATMENT USING NANOPARTICLES CONJUGATED WITH MULTIPLE LIGANDS FOR BINDING RECEPTORS ON NK CELLS” (The University of North Carolina at Chapel Hill, priority 2019, published 2022)

What was measured:
[1] = Zeta potential in 0.1M PBS; format: physicochemical
[2] = Intensity-average diameter and polydispersity index; format: physicochemical
A431 tumor = A431 tumor model in T-cell deficient Nu mice; settings: i.v. at 6, 8, 10 days post-inoculation

## cetuximab [α-EGFR]
[1]
  Mean zeta potential in 0.1M PBS: −0.76 ± 0.87 mV
[2]
  Mean intensity-average diameter: 14 ± 1 nm
A431 tumor
  effect on tumor growth: minimal effect
